Source: ChEMBL document CHEMBL1136550, “Discovery of orally bioavailable NK1 receptor antagonists” (Bioorg Med Chem Lett, 2003)

Chains of the proteins cited; added tags and fusions are not shown.
UniProt P25103, whole entry: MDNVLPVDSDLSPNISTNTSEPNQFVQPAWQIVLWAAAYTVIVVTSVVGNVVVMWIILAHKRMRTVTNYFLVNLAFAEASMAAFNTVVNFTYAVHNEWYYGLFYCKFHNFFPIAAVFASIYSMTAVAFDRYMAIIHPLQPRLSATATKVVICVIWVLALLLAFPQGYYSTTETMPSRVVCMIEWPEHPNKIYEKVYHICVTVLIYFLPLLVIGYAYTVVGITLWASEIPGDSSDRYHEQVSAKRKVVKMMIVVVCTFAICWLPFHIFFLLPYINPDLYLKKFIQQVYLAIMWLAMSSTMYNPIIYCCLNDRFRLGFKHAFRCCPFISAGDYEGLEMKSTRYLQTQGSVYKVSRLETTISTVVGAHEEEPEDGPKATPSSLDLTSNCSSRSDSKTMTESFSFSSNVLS

Target: Substance-P receptor (Homo sapiens, UniProt P25103)
Assay: Displacement of [3H]-substance P from human NK1 receptor expressed in CHO cells
Format: cell-based

- Ki: 2.51 nM
SMILES: C[C@H](OC[C@@H](c1ccccc1)N1CCN(CCOCC(=O)O)CC1)c1cc(C(F)(F)F)cc(C(F)(F)F)c1
